Measured values as given in article PMC1079883, “Effects of first and second generation antihistamines on muscarinic induced mucus gland cell ion transport” (BMC Pharmacology, 2005).

The chains behind the UniProt entries cited, without tags or fusion partners.
UniProt P11483, whole entry: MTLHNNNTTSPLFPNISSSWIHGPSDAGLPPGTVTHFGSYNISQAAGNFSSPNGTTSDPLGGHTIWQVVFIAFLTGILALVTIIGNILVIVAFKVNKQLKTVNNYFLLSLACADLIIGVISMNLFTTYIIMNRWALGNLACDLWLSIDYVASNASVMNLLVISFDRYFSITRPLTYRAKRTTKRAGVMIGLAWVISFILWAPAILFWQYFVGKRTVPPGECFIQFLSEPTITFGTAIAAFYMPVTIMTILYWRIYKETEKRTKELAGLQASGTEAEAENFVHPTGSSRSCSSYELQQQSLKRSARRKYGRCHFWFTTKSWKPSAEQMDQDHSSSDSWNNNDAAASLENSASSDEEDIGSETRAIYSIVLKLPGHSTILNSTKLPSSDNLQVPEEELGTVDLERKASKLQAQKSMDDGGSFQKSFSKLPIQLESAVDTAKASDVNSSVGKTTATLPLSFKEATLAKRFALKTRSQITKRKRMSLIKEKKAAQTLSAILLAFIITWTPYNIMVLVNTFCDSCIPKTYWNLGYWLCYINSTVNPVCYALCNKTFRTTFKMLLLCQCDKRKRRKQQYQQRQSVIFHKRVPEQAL

Molecular target: T1, M3 subtype muscarinic receptor (Sus scrofa, UniProt P11483)
T1 construct: Tracheal submucosal gland cells were isolated from the tracheal epithelium; endogenous in cells; host or cells: primary swine tracheal submucosal (mucus) gland cells in culture
Test: ACh-induced short-circuit current (ΔIsc) in cultured airway mucus gland cells, Ussing chamber, Schild dose-ratio method
Type: cell-based, swine

CN1[C@@H]2CC[C@H]1C[C@@H](OC(=O)C(CO)c1ccccc1)C2 (some centres unmarked) [Atropine]
Kb: 0.398 nM | Muscarinic inhibition (pA2): 9.4
